Consider 1 compound from US20250129135A1, “Multi-Agonist and Use Thereof” (priority 2021, published 2025).

Amino acid sequences for entries named in this document (tags omitted). Residues count along the entry.
UniProt P47871, 26-477: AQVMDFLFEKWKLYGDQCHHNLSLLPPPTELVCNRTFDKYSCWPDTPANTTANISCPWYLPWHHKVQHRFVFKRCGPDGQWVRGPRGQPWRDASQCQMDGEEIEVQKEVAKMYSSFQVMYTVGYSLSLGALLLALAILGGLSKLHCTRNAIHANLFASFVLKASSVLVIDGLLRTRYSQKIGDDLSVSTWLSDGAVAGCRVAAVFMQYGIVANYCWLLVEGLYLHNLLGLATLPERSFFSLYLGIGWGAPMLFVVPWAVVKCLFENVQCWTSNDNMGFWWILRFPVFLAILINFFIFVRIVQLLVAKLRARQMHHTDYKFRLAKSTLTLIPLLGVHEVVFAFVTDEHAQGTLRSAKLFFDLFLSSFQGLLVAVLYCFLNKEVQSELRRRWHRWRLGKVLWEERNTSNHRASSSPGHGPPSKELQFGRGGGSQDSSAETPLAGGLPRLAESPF
UniProt P43220, 24-463: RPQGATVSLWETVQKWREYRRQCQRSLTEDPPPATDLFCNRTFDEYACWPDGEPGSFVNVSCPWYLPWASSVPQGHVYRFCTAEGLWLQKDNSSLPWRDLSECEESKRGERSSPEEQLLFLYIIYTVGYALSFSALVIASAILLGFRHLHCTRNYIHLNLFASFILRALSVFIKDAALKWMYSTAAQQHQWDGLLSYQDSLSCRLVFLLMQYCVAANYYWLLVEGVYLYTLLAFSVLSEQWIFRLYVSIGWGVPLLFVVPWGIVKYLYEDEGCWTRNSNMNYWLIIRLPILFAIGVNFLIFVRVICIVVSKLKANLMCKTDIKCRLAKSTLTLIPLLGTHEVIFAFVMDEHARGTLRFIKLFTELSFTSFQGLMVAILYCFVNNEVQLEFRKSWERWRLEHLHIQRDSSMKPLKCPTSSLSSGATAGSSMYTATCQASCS

One assay deals with T1, Human GIP R (Homo sapiens, UniProt P48546).
T1 construct: expressed in transfected cells; host or cells: CHO
T1 sequence (P48546 22-466): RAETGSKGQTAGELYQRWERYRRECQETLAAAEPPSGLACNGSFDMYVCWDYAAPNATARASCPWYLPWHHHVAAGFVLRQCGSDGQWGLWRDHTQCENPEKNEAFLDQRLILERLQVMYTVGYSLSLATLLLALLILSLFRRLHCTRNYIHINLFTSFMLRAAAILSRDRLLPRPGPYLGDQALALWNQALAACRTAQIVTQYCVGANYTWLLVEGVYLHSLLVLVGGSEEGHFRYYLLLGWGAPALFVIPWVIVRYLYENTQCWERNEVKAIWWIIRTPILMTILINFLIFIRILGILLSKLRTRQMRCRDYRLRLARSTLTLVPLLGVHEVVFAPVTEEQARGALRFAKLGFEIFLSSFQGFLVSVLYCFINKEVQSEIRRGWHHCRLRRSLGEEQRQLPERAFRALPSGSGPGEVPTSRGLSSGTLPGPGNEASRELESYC
The assay is described as follows: cAMP (HTRF) activity in CHO cells stably overexpressing GIP receptor. The class given is cell-based. In short, it runs like this: (§1)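 Agonism was assessed from intracellular cAMP by HTRF. Cells resuspended in HBSS were treated with compound for 60 minutes at room temperature, then with detection reagent for a further 60 minutes. EC50 (nM) values came from concentration–response curves.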
For orientation: TR-FRET usually uses a lanthanide donor and a delayed reading to cut background.

The next assay addresses T2, Human GCG R (Homo sapiens, UniProt P47871).
T2 construct: expressed in transfected cells; host or cells: HEK-293
As to the kind of experiment: cAMP (HTRF) activity in HEK-293 cells stably overexpressing human GCG receptor. Format: cell-based. The method in brief: as §1

In the next assay the test system is RIN-m5F cells. Format: cell-based, rat. In short, it runs like this: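 cAMP production measured in RIN-m5F cells resuspended in HBSS; compounds incubated 60 min at room temperature, then detection reagent added for a further 60 min before read-out.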
A further assay has as its system 3T3-L1 adipocytes. In short, it runs like this:
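Mouse 3T3-L1 preadipocytes were differentiated with IBMX, dexamethasone and insulin for 5 days, then insulin plus 10 uM rosiglitazone for 3 days, then 10% FBS medium for 2–3 days. Mature adipocytes received 10-point, 3-fold compound dilutions for 60 min at room temperature. cAMP was read by kit detection reagent after a further 60 min, with concentration-effect curves fitted.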

Assay [1] relates to human primary liver cells. The class given is cell-based. In short, it runs like this: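 Human primary hepatocytes, thawed at 37° C and resuspended in HBSS, exposed to compound for 60 min at room temperature. Detection reagent then added for 60 min before cAMP readout.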
A further assay concerns C57 BL/6J DIO mice. The assay is described as follows: In vivo pharmacodynamics in high-fat diet induced obesity (DIO) mice. Also on record: species or system mouse. As to conditions: Mean±SEM; for Weight change: Table 6-1; for LDL-C / TC (total cholesterol) / TG (plasma triglycerides): Table 7-1. The source says:
High-fat diet induced obesity (DIO) mice have characteristics such as obesity, elevated blood sugar, insulin resistance, and lipid abnormalities, all of which are very significant metabolic syndromes similar to a human body. The effects of the compounds of the present application on body weight, food intake, blood sugar, and lipids in C57 BL/6J DIO mice were studied.
Obesity was induced in mice by feeding with a high-fat diet (60 kcal % of calories from fat). […] After grouping, one animal was raised in each cage for one week, during which each of the animals was injected subcutaneously (S.C.) with a solvent (1×PBS, 5 ml/kg) to pre-adapt the experimental operation process.
After the preparation of animals, vehicle control or compounds were administered to groups of animals by subcutaneous injection, in which the compounds were dissolved in 1×PBS, the dosage was 5 ml/kg, and the administration operation was started at 9:00 am and conducted once every three days (Q3D) for 15 days. Throughout the entire experimental study, animal weight and food intake were measured daily before administration, and compared with initial weight and food intake of the same animal before administration to calculate a percentage change in animal weight (%) and cumulative food intake, so as to evaluate the impact of compounds on changes in body weight and food intake.
At the end point of the experiment (Day 15), the body weight of the mice was measured, and then fasting blood glucose was measured by taking blood from the tail tip of broken tail without anesthesia. After the blood collection, the animals were anesthetized with CO2 and euthanized. Then, blood was taken from the heart and plasma was separated by centrifugation. The plasma was used to measure total cholesterol (TC), low-density lipoprotein cholesterol (LDL-C), triglycerides (TG), and blood insulin content. The liver was separated for homogenization, and then centrifuged to obtain the supernatant for determining triglyceride content in the liver.
All results were expressed in Mean±SEM, and the results were analyzed by one-way ANOVA using GraphPad Prism 5 software, followed by Dunnett's post hoc test compared to the Vehicle control group. The difference at the p<0.05 level was considered statistically significant.

Another assay addresses Human GLP-1R (Homo sapiens, UniProt P43220). As to the kind of experiment: cAMP (HTRF) activity in HEK-293 cells stably overexpressing human GLP-1 receptor. The class given is cell-based. Also on record: expressed in transfected cells; host or cells: HEK-293. As to conditions: EC50 of human GLP-1 (7-37) / EC50 of compound. In short, it runs like this:
as §1

The term EC50 denotes the concentration that produces a half-maximal response. For the compound `CC[C@H](C)[C@H](NC(=O)[C@H](Cc1ccccc1)NC(=O)[C@H](C)NC(=O)C(C)(C)NC(=O)[C@H](CCC(N)=O)NC(=O)[C@H](C)NC(=O)[C@H](CCCCNC(=O)COCCOCCNC(=O)COCCOCCNC(=O)CC[C@H](NC(=O)CCCCCCCCCCCCCCCCCCC(=O)O)C(=O)O)NC(=O)[C@H](CCCCN)NC(=O)[C@H](CC(=O)O)NC(=O)[C@H](CC(C)C)NC(=O)[C@](C)(CC(C)C)NC(=O)[C@@H](NC(=O)[C@H](CO)NC(=O)[C@H](Cc1ccc(O)cc1)NC(=O)[C@H](CC(=O)O)NC(=O)[C@H](CO)NC(=O)[C@@H](NC(=O)[C@](C)(Cc1ccccc1F)NC(=O)[C@@H](NC(=O)CNC(=O)[C@H](CCC(N)=O)NC(=O)C(C)(C)NC(=O)[C@@H](N)Cc1ccc(O)cc1)[C@@H](C)O)[C@@H](C)O)[C@@H](C)CC)C(=O)N[C@@H](CCC(=O)O)C(=O)N[C@@H](Cc1ccccc1)C(=O)N[C@@H](CC(C)C)C(=O)N[C@@H](CC(C)C)C(=O)N[C@@H](CCC(=O)O)C(=O)NCC(=O)NCC(=O)N1CCC[C@H]1C(=O)N[C@@H](CO)C(=O)N[C@@H](CO)C(=O)NCC(=O)N[C@@H](CCC(N)=O)C(=O)N1CCC[C@H]1C(=O)N1CCC[C@H]1C(=O)N1CCC[C@H]1C(=O)N[C@@H](CO)C(N)=O` [Compound 22], the EC50 at Human GIP R worked out at 0.007 nM; on Human GCG R it was 0.017 nM; in the assay on RIN-m5F cells (cAMP, at least 3 independent tests, read-out: EC50 on RIN-m5F rat pancreatic islet tumor cells) it was 0.119 nM; with 3T3-L1 adipocytes (read-out: EC50 on mouse 3T3-L1 adipocyte, cAMP, at least 3 independent tests), 0.475 nM; in assay [1] (cAMP, at least 3 independent tests, read-out: EC50 on human primary liver cells), 0.654 nM. Moreover, on Human GIP R (EC50 of human GIP / EC50 of compound), the “Human GIP R Rel. A (Relative Activity)” value came out at 2585.71%. At Human GCG R (EC50 of human GCG / EC50 of compound), the “Human GCG R Rel. A (Relative Activity)” value is 335.29%. The “Rel. A (Relative Activity) on RIN-m5F” value with RIN-m5F cells (relative to GLP-1(7-37)) was 867.23%. Further, in the assay on 3T3-L1 adipocytes (relative to GIP), the “Rel. A (Relative Activity) on 3T3-L1 adipocyte” value amounted to 800.42%. Also, the “Rel. A (Relative Activity) on human primary liver cells” value in assay [1] (relative to GCG) is 594.95%. Also, the Weight change is recorded as −20.3 ± 1.54% in the assay on C57 BL/6J DIO mice (3 nmol/kg s.c. Q3D for 15 days), −28.9 ± 2.28% in the assay on C57 BL/6J DIO mice (10 nmol/kg s.c. Q3D for 15 days) and −50.5 ± 1.45% in the assay on C57 BL/6J DIO mice (30 nmol/kg s.c. Q3D for 15 days). Moreover, the LDL-C was found to be 0.63 ± 0.070 mM in the assay on C57 BL/6J DIO mice (3 nmol/kg, Day 15) and 0.48 ± 0.047 mM with C57 BL/6J DIO mice (30 nmol/kg, Day 15). The “TC (total cholesterol)” value is 3.77 ± 0.353 mM with C57 BL/6J DIO mice (3 nmol/kg, Day 15) and 2.46 ± 0.076 mM with C57 BL/6J DIO mice (30 nmol/kg, Day 15). Moreover, the “TG (plasma triglycerides)” value in the assay on C57 BL/6J DIO mice (3 nmol/kg, Day 15) stood at 0.84 ± 0.051 mM; in the assay on C57 BL/6J DIO mice (30 nmol/kg, Day 15) it was 0.59 ± 0.075 mM. For the same compound, the “Blood sugar (fasting blood glucose)” value in the assay with C57 BL/6J DIO mice (Table 8-1, 3 nmol/kg, Day 15) is given as 99.4 ± 5.65 mg/dL. In the assay with C57 BL/6J DIO mice (Table 8-1, 3 nmol/kg, Day 15), the “Insulin (blood)” value was 24.7 ± 7.45 mIU/L. Also, the “Human GLP-1R Rel. A (Relative Activity)” value at Human GLP-1R was found to be 733.33%.
